Measured values from patent publication US20130245081A1, “Compositions and Methods for Treating Amyotrophic Lateral Sclerosis” (priority 2009, published 2013).

How the values were obtained:
patients with ALS = settings: Part 2
clinical = settings: both, human, plasma, oral, fasted

SMILES	effect of riluzole on slope of ALSFRS R total score or mortality (patients with ALS)	half-life (clinical; 50 mg, t1/2, single 50 mg) [h]	half-life (clinical; 150 mg, t1/2, single 150 mg) [h]	half-life (clinical; 300 mg, t1/2, single 300 mg) [h]
Nc1nc2ccc(OC(F)(F)F)cc2s1 [riluzole, reference compound]	no effect			
CCCN[C@@H]1CCc2nc(N)sc2C1 [dexpramipexole, (6R)-2-amino-4,5,6,7-tetrahydro-6-(propylamino)benzothiazole]		6.65 ± 1.07	6.96 ± 0.56	6.4 ± 1.73
